The record followed here is US7956082B2, “Indole derivative having PGD2 receptor antagonist activity” (Shionogi & Co., Ltd, priority 2005, dated 2011).

Protein sequences, listed by entry. Tags and fused reporters are not part of them.
UniProt Q13258, whole entry: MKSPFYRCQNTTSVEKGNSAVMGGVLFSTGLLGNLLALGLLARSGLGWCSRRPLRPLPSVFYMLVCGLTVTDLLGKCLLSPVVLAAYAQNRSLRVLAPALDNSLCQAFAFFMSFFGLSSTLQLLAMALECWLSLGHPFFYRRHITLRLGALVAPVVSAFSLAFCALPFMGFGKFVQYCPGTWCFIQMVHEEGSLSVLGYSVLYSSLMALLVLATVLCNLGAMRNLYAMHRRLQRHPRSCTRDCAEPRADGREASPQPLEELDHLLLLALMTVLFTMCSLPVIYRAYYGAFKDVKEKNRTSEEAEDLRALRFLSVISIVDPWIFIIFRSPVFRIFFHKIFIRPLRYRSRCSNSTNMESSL

The target in the assay is DP receptor (Homo sapiens, UniProt Q13258). Description: cAMP assay with washed platelets (DP inhibitory activity in vitro). Conditions: read-out: IC50 (50% DP-inhibitory concentration in the cAMP assay), 100 nM PGD2, cAMP by HTRF. On the procedure: 1) Preparation of Platelet and a Method of cAMP Assay
30 ml of peripheral blood was collected from a healthy volunteer using a syringe containing one ninth amount of 3.8% sodium citrate for diagnosis. After being centrifuged at 180 g for 10 minutes at room temperature, a supernatant was collected and used as Platelet Rich Plasma (PRP). The resulting PRP was washed with wash buffer and centrifuged three times (Washed Platelet: WP) and platelets were counted by a microcell counter. WP was added to a plate in amount of 1.5×10^8/assay and the plate was treated, with 3-isobutyl-1-methylxanthin (IBMX; 0.5 mM) for 5 minutes. A reaction was initiated by adding 100 nM of PGD2 5 min after an addition of a test compound. The reaction was terminated with an addition of 1N HCl after 2 minutes and the cells were destructed using 12% triton X-100. An amount of cAMP in the supernatant was assayed by Homogeneous […] (HTRF)
Background: cAMP levels reflect the balance of adenylyl cyclase and phosphodiesterase activity.

Take `COc1ccc(S(=O)(=O)N2CCC(c3cn(CC(=O)O)c4ccc(Cl)cc34)C2)cc1` (stereo not shown): the IC50 was 23 nM.
